The nature of one data set: physchem. The class given is physicochemical.
A short description of data set [1]: Solubility of flecainide in D/L-lactic acid media. To be noted: 20% w/v HPβCD in water with DL-lactic acid, aqueous with cosolvent or surfactant or cyclodextrin, thermodynamic from solid, pH 6.4. It is filed as physicochemical. As for the experimental part: D-lactic acid, L-lactic acid, or DL-lactic acid was slowly added portionwise to the suspension while stirring. The system was left to equilibrate for 30 minutes, and the pH was determined. The pH was then adjusted to 5.2-6 with NaOH if necessary. After addition of NaOH, the system was again left to equilibrate for 30 minutes before pH was measured. After the desired pH was achieved, the suspension was stirred (1000 rpm) at ambient temperature for 48 hours. At 24 hours and 48 hours of stirring, samples of each solution were centrifuged at 10000 rpm for 2 minutes and filtered with a 0.45 μm membrane to obtain supernatant for pH determination and HPLC analysis. Solids from each sample were also characterized by X-ray powder diffraction (XRPD) analysis.

Structures are written as SMILES. Converted amounts (≈) assume the structure as drawn.

Take `O=C(NCC1CCCCN1)c1cc(OCC(F)(F)F)ccc1OCC(F)(F)F` (stereo not drawn) [flecainide acetate]: the solubility was found to be 71.5 mg/mL in the data set “physchem” (pH 5.4, aqueous with cosolvent or surfactant or cyclodextrin, Solubility (mg/mL)) and 71.1 mg/mL in the data set “physchem” (pH 5.5). Molecule `O=C(NCC1CCCCN1)c1cc(OCC(F)(F)F)ccc1OCC(F)(F)F` (stereo not drawn) [flecainide] gave a solubility at 48 h in data set [1] of 71.3 mg/mL (≈ 172 mM).

The record behind these values is patent publication US12576073B2, “Antiarrhythmic formulation” (InCarda Therapeutics, Inc., priority 2019, dated 2026).
